Results published in patent US12447152B2, “Pharmaceutical combination of PRMT5 inhibitors” (Lupin Limited, priority 2019, dated 2025).

Tested on: MIA PaCa-2 human pancreatic cancer xenograft
Experiment: In vivo efficacy study of Compound-24 with BI-3406, MIA PaCa-2 xenograft
Details: mouse, 50 mg/kg

Question: Which “% tumor growth inhibition” value does the source give for `COc1cc2nc(C)nc(N[C@H](C)c3cc(N)cc(C(F)(F)F)c3)c2cc1O[C@H]1CCOC1` [BI-3406, N—((R)-1-(3-amino-5-(trifluoromethyl)phenyl)ethyl)-7-methoxy-2-methyl-6-(((S)-tetrahydrofuran-3-yl)oxy)quinazolin-4-amine, reference compound] here?
Answer: 47.97±11.91%
